Reference: patent publication US20230398130A1, “METHODS AND COMPOSITIONS FOR DIFFERENTIATING STEM CELLS” (Massachusetts Institute of Technology, priority 2020, published 2023)

Test system: ISC-enriched organoids
Assay: Primary screen, 384-well 2.5-D organoid differentiation (ENR+CD, 6 days, Target Selective Inhibitor Library, vs whole-plate median): ATP (CellTiter-Glo 3D, CTG)

`CNC(=O)c1cc(Oc2ccc(NC(=O)Nc3ccc(Cl)c(C(F)(F)F)c3)cc2)ccn1` [Sorafenib] was tested, and the “Z.CTG (standard z score)” value was 0.077.
